# Patent US11591313B2, “Inhibitors of ectonucleotide pyrophosphatase/phosphodiesterase 1 (ENPP1) and methods of use thereof” (Stingray Therapeutics, Inc., priority 2020, dated 2023)
# Chains of the proteins cited; added tags and fusions are not shown. Lines headed by an entry give the natural chain unless they say otherwise; changes in a name come on top.
# UniProt P22413: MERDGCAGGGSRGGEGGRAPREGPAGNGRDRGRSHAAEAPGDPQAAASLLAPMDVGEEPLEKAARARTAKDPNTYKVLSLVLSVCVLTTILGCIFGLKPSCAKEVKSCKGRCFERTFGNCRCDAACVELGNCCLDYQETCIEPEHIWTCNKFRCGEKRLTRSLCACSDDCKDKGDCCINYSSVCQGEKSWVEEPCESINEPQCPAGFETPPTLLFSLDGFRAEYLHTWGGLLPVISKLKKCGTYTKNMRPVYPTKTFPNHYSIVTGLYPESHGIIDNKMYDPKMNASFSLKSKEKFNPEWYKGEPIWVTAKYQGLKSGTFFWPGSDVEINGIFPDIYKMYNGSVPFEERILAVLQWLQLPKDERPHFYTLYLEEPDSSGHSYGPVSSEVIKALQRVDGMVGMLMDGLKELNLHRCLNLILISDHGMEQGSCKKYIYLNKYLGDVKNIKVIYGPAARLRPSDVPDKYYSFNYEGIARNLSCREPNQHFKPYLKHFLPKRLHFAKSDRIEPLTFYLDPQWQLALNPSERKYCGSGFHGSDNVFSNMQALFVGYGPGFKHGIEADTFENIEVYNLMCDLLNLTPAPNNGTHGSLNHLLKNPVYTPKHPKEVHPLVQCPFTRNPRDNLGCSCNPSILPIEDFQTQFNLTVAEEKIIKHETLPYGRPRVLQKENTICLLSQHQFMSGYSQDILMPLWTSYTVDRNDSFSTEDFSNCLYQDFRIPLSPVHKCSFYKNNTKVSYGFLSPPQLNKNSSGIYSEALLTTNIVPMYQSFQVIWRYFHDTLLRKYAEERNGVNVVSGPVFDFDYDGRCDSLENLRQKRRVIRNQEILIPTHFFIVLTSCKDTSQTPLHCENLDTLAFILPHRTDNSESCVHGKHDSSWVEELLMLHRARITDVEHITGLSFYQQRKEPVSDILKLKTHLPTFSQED
# pIC50: −log10 of the molar value. Counter-ions that a name gives are not always drawn.
# Biological target: Recombinant Human ENPP-1 Protein (Homo sapiens (Human), UniProt P22413)
# Assay: ENPP1 Assay (TMP)
# Assay type: biochemical
# Conditions: substrate thymidine 5′-monophosphate 150 μM, pH 9.0, 37° C. 45 minutes, absorbance at 405 nm
row,SMILES,pIC50
1,"COc1cc2ncnc(N3CCCC(CCNS(N)(=O)=O)CC3)c2cc1OC (stereo not drawn) [Compound 060, N-(2-(1-(6,7-dimethoxyquinazolin-4-yl)azepan-4-yl)ethyl)sulfamide]",8.36

# Same assay, conditions: substrate thymidine 5′-monophosphate 150 μM, pH 9.0, 37° C. 45 minutes, absorbance at 405 nm; read-out: IC50
row,SMILES,pIC50
1,COc1cc2ncc(C#N)c(-c3ccc(CNS(N)(=O)=O)nc3)c2cc1OC [Compound 046],8.01
2,"COc1cc2ncnc(-c3ccc(CNS(N)(=O)=O)nc3)c2cc1OC [Compound 047, N-((5-(6,7-dimethoxyquinazolin-4-yl)pyridin-2-yl)methyl) sulfamide]",7.17
3,COc1cc2ncnc(-c3ccc(NCCNS(N)(=O)=O)nc3)c2cc1OC.Cl [Compound 048],7.22
4,COc1cc2ncnc(N3CCCC(CCNS(N)(=O)=O)CC3)c2cc1OC (stereo not drawn) [Compound 049],8.75
5,COc1cc2ncnc(CCCCCNS(N)(=O)=O)c2cc1OC [Compound 050],7.70
6,COc1cc2ncnc(OCCCCNS(N)(=O)=O)c2cc1OC [Compound 053],8.44
7,COc1cc2ncnc(OCCCCCNS(N)(=O)=O)c2cc1OC [Compound 054],7.62
8,COc1cc2ncnc(NCCCCNS(N)(=O)=O)c2cc1OC [Compound 056],8.16
9,COc1cc2ncnc(NCCCCCNS(N)(=O)=O)c2cc1OC [Compound 057],7.33
10,"COc1cc2ncnc(SCCCCNS(N)(=O)=O)c2cc1OC [Compound 058, N-(4-((6,7-dimethoxyquinazolin-4-yl)thio)butyl) sulfamide hydrochloride]",8.51
11,"COc1cc2ncnc(N(C)CCCCCNS(N)(=O)=O)c2cc1OC [Compound 061, N-(5-((6,7-dimethoxyquinazolin-4-yl) (methyl)amino)pentyl) sulfamide]",7.54
